## Measured affinities in a library of Ab-14 light chain variants

From the AlphaSeq antibody data of Li et al. 2023 (doi:10.1038/s41467-023-39022-2), copy in the FLAb collection.

All variants were tested on one target, the spike HR2 peptide PDVDLGDISGINAS (SARS-CoV-2).

Ab-14 is the parent antibody, in scFv form: VH, then a (GGGGS)3 linker, then VL. The heavy chain is unchanged in all variants.
VH: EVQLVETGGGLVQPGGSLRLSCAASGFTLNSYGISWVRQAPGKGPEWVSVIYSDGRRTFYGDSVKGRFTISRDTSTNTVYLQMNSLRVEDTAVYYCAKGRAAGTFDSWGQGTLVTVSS
VL: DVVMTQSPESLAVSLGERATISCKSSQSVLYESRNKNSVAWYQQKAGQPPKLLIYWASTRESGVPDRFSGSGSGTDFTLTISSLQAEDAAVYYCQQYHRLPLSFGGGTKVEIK

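This is the validation round: designs drawn from the data on random variants, tested in the same kind of assay. Several design methods are mixed in this list. AlphaSeq pools MATa yeast showing the antibodies with MATalpha yeast showing the peptide. Pairs that bind mate more often; barcode pairs of the diploids are counted by sequencing. A regression on co-assayed BCL2-family reference pairs converts the normalised counts of each replicate to an apparent Kd. There are six technical replicates.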

Substitutions are numbered in sequence along the VL above, starting at 1 (not Kabat). Variants here have at most six changes. Numbers give log10(Kd / nM), so 0 is 1 nM and 3 is 1 µM. Smaller is tighter. The mean shown is taken over the replicates in which the pair was detected. Where no diploid with the target was found in any replicate, the entry reads "not detected": below detection, most likely a poor binder, though not proof of it. Empty control strains, which show no peptide, gave a signal in 4% of pairings with all light chain designs; the median was 2.64 and 95% of these signals were weaker than 1.59. No background was subtracted. Values of this round are not directly comparable with the first-round values of the same sequences. The parent sequence was in this pool as ten entries: three were never detected, three once, and four in most replicates, with averages from 0.34 to 2.37. In the paper, a design with two or fewer of six values counts as a poor binder.

changes,mean log10 Kd (nM),replicates with signal
S25F/S28K/S33G/N35T/W56N/S62Q,-0.37,6 of 6
S28G/W56G/S103H,0.48,6 of 6
S33G/W56S,0.64,6 of 6
L30W,1.95,6 of 6
L30S/E32G/S58A/Q95M/L102I,1.00,4 of 6
S26P/E61S/R99W,1.88,1 of 6
S25L/V29H/W56Q/S62V,0.12,6 of 6
S25L/S26Q/W56N/E61L/S62E,-0.01,6 of 6
V29Y/Y31M/W56N/Q96F,0.66,6 of 6
V29D/Y31N/H98D/S103E,2.23,5 of 6
Q27P/R34Q/W56N/E61M,-0.13,6 of 6
Y31F/K36C/W56D/L100P,0.54,6 of 6
S25L/S26Q/V29W/L30E/W56H,0.24,6 of 6
Y31W/W56N/T59Y,1.53,6 of 6
S25V/Q27E/V29E/K36S/W56N/T59Y,-0.12,6 of 6
S25V/V29F/Y31M/W56D,-0.52,6 of 6
R34F/S38H/W56A/Q96S,0.60,6 of 6
S25T/S26Y/Q27V/V29D/W56Q/T59E,0.64,6 of 6
Q27K/E32T/W56K/E61I,not detected,0 of 6
S25L/N35M/S38N/W56D,0.31,6 of 6
S25L/S26Y/L30D/W56N,-0.10,6 of 6
S25M/Q27I/V29Y/Y31G/W56E,0.22,6 of 6
S25F/S26T/W56Q,-0.23,6 of 6
V29F/Y31S,1.60,6 of 6
S25L/W56E/S62E/S103M,-0.38,6 of 6
L30F/E32D/E61I,1.89,2 of 6
S25L/S33E/W56N/T59Q/S62V,-0.05,6 of 6
Q27A/R34A,2.19,6 of 6
K24M/V39N/W56D/E61L,1.41,6 of 6
S25V/S33G/N35T/W56N,0.74,6 of 6
S25V/S26P/V29M/K36A/W56N/E61L,-0.10,6 of 6
S28L/V29E/W56E/T59Q/E61S/H98Q,1.35,6 of 6
S25L/V29F/W56E/S62Q,-0.13,6 of 6
S25M/L30W/Y31M/W56D,0.48,6 of 6
S25I/S26D/W56D,-0.40,6 of 6
S33T/N37Q/W56Y/R99C/L102P,not detected,0 of 6
K24H/S25L/Q27P/W56N/E61S,0.10,6 of 6
S25L/Q27M/W56E/T59Q,-0.23,6 of 6
S25V/S28T/S62F/S103P,1.87,6 of 6
S25Q/V29K/Y31C/W56D,-0.03,6 of 6
S25L/S28L/V29N/W56N,0.04,6 of 6
S25L/W56D/Q96A,-0.06,6 of 6
L30F/W56N/A57G,0.87,6 of 6
S25V/S28L/V29E/W56N,0.08,6 of 6
S25L/V29M/N35M/W56N/E61M,-0.20,6 of 6
S25V/Q27M/S28Q/E32S/W56D/S58N,-0.34,6 of 6
S25Y/S26Y/Q27P/V29Y/W56Q/R99V,0.90,6 of 6
V29W/W56G/T59A,0.02,6 of 6
L30V/N35E/S38N/W56Q/S62E/Y97H,not detected,0 of 6
S25M/V29N/L30N/S33G/P101V,1.37,6 of 6
K24Q/S25M/H98W,0.88,6 of 6
S62N/Q96A/H98S,2.48,1 of 6
Y31D/W56Q/P101V,1.04,5 of 6
S26L/V29W/W56H/T59L/S62Q,0.51,6 of 6
S25D/V29M/E32S/W56D/T59A/S103W,0.52,6 of 6
V29W/W56G/T59Y/S62V,-0.55,6 of 6
S25L/V29E/S33E/W56N/T59Q,-0.09,6 of 6
K24A/S28G/V29W/W56G/S62D,0.78,6 of 6
S25L/V29Q/L30G/W56Q,-0.07,6 of 6
S25V/S33E/W56N/T59Q,2.18,6 of 6
S25L/W56N/E61P,0.75,6 of 6
S25L/S26P/V29E/N35M/W56N/T59Q,-0.29,6 of 6
S25L/S26Q/L30Q/W56N/E61M,-0.23,6 of 6
S25L/S26E/Q27W/V29M/W56N,0.34,6 of 6
S25L/Y31M/W56E/S62V,-0.16,6 of 6
Q27I/V29Y/K36S/W56E/S62Q,1.01,6 of 6
S25F/S26T/Q27I/K36V/W56Q/H98S,0.61,6 of 6
S25L/L30E/Y31T/E32G/L102I,0.73,6 of 6
S25F/S33A/W56G/E61A/S62D,-0.02,6 of 6
S25F/S26E/V29W/K36G/W56Q/E61S,-0.19,6 of 6
S25L/Y31M/W56S,-0.21,6 of 6
S25L/V29Q/S33D/N35V/W56G,0.01,6 of 6
S25M/Y31Q/S33G/K36D/W56S/E61C,0.43,4 of 6
S25L/W56E/T59Y,-0.32,6 of 6
S28H/L30T/R34Y/K36Q/W56S,1.66,6 of 6
K24D/S26E,not detected,0 of 6
Q27I/V29N/W56E/S103M,-0.20,6 of 6

Excerpt, the final 9 entries:

{"changes": "S25F/S33A/W56G/E61A/S62D", "mean log10 Kd (nM)": "-0.02", "replicates with signal": "6 of 6"}
{"changes": "S25F/S26E/V29W/K36G/W56Q/E61S", "mean log10 Kd (nM)": "-0.19", "replicates with signal": "6 of 6"}
{"changes": "S25L/Y31M/W56S", "mean log10 Kd (nM)": "-0.21", "replicates with signal": "6 of 6"}
{"changes": "S25L/V29Q/S33D/N35V/W56G", "mean log10 Kd (nM)": "0.01", "replicates with signal": "6 of 6"}
{"changes": "S25M/Y31Q/S33G/K36D/W56S/E61C", "mean log10 Kd (nM)": "0.43", "replicates with signal": "4 of 6"}
{"changes": "S25L/W56E/T59Y", "mean log10 Kd (nM)": "-0.32", "replicates with signal": "6 of 6"}
{"changes": "S28H/L30T/R34Y/K36Q/W56S", "mean log10 Kd (nM)": "1.66", "replicates with signal": "6 of 6"}
{"changes": "K24D/S26E", "mean log10 Kd (nM)": "not detected", "replicates with signal": "0 of 6"}
{"changes": "Q27I/V29N/W56E/S103M", "mean log10 Kd (nM)": "-0.20", "replicates with signal": "6 of 6"}